# Assays:
# By UniProt entry, the sequences of proteins in these tests, tags left out. Where a name states a change or a piece, a line headed by the entry shows the natural chain unless it says otherwise.
# UniProt P42338: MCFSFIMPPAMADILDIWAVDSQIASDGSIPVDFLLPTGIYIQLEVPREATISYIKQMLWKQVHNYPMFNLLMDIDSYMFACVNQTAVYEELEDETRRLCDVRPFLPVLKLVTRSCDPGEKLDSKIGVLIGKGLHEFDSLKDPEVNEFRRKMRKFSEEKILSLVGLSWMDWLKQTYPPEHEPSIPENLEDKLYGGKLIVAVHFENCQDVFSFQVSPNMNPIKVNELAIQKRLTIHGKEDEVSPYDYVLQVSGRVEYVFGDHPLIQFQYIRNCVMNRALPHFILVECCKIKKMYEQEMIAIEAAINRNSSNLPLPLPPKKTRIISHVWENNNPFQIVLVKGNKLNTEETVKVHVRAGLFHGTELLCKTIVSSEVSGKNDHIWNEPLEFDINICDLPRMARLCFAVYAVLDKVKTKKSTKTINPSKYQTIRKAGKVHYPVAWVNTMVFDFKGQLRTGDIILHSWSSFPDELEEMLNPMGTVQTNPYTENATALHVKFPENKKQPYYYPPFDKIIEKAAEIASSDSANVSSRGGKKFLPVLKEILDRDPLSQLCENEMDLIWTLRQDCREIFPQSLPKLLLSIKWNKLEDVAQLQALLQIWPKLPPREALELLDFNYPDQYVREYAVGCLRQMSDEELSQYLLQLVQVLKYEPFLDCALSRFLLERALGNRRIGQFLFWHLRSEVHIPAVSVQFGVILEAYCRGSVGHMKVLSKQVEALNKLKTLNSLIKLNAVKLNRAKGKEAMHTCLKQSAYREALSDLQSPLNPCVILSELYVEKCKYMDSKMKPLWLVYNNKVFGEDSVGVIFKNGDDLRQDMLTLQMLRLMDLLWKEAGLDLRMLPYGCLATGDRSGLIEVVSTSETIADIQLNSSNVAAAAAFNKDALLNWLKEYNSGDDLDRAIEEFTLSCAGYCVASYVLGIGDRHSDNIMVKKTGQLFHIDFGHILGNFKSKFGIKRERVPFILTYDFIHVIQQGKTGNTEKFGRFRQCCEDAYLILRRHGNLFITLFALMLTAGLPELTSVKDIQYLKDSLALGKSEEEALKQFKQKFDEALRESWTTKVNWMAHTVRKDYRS
# UniProt Q16539, whole entry, looked up: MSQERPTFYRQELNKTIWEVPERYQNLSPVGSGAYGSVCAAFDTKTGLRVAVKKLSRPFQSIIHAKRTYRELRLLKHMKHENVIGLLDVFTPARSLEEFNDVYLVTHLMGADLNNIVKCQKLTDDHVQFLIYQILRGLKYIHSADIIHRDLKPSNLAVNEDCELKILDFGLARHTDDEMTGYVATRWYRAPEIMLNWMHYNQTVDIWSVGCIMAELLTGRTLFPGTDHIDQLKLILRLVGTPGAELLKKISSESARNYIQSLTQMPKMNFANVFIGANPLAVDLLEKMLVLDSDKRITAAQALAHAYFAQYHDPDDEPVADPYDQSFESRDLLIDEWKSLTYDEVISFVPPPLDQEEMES
# UniProt O75116: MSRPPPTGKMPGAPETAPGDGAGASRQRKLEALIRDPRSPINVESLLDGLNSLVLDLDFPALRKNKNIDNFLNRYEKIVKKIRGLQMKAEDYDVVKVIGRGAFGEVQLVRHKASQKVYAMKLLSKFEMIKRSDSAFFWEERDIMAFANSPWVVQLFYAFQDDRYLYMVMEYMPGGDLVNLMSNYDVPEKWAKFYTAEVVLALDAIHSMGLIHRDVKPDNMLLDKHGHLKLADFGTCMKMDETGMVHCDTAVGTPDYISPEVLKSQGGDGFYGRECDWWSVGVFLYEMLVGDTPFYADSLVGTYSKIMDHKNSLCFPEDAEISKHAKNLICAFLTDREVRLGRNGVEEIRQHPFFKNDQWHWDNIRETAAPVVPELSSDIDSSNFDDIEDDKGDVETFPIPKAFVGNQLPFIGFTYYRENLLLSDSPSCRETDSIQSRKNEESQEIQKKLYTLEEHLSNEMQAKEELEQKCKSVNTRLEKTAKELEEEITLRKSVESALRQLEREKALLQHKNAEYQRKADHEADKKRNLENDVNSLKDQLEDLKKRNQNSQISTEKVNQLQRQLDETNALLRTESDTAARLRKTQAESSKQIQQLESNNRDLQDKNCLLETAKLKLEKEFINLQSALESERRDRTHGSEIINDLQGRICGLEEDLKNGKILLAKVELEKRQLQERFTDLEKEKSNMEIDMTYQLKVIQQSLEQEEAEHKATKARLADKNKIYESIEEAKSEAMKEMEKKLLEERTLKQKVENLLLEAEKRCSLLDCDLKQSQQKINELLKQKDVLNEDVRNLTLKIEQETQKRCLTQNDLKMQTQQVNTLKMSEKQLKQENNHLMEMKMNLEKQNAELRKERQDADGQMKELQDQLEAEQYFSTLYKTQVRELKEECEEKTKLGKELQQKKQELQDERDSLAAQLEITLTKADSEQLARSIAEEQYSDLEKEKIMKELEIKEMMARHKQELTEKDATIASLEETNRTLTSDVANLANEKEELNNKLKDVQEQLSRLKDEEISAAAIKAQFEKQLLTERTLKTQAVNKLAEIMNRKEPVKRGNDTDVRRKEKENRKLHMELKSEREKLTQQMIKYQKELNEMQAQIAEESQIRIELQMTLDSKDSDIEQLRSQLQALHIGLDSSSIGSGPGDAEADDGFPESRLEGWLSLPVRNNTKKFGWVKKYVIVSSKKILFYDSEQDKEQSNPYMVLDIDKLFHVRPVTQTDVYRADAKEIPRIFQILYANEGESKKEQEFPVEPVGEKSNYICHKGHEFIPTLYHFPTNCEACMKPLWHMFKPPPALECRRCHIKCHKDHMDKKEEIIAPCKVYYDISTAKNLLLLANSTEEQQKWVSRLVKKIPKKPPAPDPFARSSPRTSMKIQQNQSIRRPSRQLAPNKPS
# PIK3CB (Human) = PIK3CB (Human) (UniProt P42338); experiment: Enzyme Assay
# MAPK14 (human) = MAPK14 (human) (UniProt Q16539); experiment: Inhibition of MAPK14 Kinase Activity
# CDK2 = CDK2 (UniProt P24941); experiment: Enzyme Assay
# ROCK2 (human) = ROCK2 (human) (UniProt O75116); experiment: Assessment of ROCK2 Kinase Activity
smiles,measurement,setting,value
O=c1cc(N2CCOCC2)oc2c(-c3ccccc3)cccc12,IC50,PIK3CB (Human),534 nM
CNC(=O)Nc1cnccc1COc1ccc(NC(=O)Nc2cc(C(C)(C)C)nn2-c2ccc(C)cc2)c2ccccc12,IC50,MAPK14 (human),< 10 nM
C[S+]([O-])c1ccc(Nc2nc(OCC3CCCCC3)c3nc[nH]c3n2)cc1 (stereo not given),IC50,CDK2,100 nM
O=c1ccc2cnc(Nc3ccccc3)nc2n1CCCOCc1ccccc1,IC50,CDK2,5900 nM
Cc1c[nH]c2nccc(Oc3ccc(Nc4cc(Cl)nc(N)n4)cc3F)c12,IC50,ROCK2 (human),7 nM

# — the Kinase Knowledgebase extract (Sharma et al. 2016)
